The text below walks through data of US20240270821A1, “GIP/GLP1/GCG TRI-RECEPTOR AGONISTS AND USES THEREOF” (priority 2023, published 2024).

The chains behind the UniProt entries cited, without tags or fusion partners. Residues count along the entry.
UniProt P43220, 24-463: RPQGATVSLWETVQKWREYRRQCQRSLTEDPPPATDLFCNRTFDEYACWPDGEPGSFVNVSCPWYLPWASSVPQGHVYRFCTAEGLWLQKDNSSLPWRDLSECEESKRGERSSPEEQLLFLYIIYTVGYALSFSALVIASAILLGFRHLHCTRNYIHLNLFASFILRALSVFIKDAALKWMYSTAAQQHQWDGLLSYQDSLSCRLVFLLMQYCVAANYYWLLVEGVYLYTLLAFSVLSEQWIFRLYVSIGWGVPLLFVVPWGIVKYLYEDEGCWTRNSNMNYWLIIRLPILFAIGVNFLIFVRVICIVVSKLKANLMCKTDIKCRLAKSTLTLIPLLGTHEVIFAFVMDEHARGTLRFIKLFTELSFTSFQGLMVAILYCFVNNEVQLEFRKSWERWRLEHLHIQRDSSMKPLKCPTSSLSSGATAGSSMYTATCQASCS
UniProt P47871, 26-477: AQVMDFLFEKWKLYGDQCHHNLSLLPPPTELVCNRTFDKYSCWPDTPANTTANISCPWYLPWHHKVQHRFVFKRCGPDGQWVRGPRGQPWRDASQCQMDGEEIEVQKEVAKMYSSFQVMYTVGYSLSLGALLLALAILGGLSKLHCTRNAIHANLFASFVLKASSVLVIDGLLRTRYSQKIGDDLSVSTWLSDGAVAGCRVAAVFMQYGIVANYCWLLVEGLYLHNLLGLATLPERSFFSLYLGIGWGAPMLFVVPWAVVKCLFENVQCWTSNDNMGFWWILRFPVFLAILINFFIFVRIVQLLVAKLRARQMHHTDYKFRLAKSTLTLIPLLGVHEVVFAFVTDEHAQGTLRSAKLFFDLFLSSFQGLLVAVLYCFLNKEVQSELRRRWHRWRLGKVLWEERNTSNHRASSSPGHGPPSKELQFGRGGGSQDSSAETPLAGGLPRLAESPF

SMILES strings stand for the structures. Like-named read-outs stand apart in the source and are kept apart here.

The target of data set [1] is T1, hGIPR (Homo sapiens, UniProt P48546).
T1 sequence (P48546 22-466): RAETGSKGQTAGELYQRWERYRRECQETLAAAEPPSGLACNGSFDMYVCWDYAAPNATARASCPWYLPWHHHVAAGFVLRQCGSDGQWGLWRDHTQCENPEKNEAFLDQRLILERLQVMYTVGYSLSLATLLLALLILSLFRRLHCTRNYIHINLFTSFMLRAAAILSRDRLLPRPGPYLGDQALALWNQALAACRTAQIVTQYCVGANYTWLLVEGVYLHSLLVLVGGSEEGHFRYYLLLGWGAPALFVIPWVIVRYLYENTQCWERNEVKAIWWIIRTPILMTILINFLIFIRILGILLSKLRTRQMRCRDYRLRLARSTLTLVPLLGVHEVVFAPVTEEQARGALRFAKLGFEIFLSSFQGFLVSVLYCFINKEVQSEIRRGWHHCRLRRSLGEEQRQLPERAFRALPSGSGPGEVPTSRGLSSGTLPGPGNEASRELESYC
The experiment in a line: Functional cAMP activity in the presence of 1% HSA. Type of data set: cell-based.

The target in data set [2] is T2, hGLP-1R (Homo sapiens, UniProt P43220). The experiment in a line: Functional cAMP activity in the presence of 1% HSA. The data set is classed as cell-based.
Data set [3] deals with human GcgR (Homo sapiens, UniProt P47871). The experiment in a line: Functional cAMP activity in the presence of 1% HSA. Type of data set: cell-based.
Data set [4] addresses T1, hGIPR. The experiment in a line: Functional cAMP activation in the presence of 0.1% casein (no HSA). Type of data set: cell-based.
Data set [5] addresses T2, hGLP-1R. The data set is described as above. Type of data set: cell-based.
Data set [6] deals with hGcgR (Homo sapiens, UniProt P47871). The data set is described as above. Type of data set: cell-based.
Data set [7] can be described thus: Pharmacokinetics in male Sprague Dawley rats, single subcutaneous administration. Particulars: rat, in vivo, single SC 10 nmol/kg, mean n=3.
The target of data set [8] is human GLP1-R (Homo sapiens, UniProt P43220). The experiment in a line: GLP1-R internalization assay in HEK293 cells. The data set is classed as cell-based. Particulars: for Internalization % TOP: normalized to maximum concentration of GLP-1 (100%).
Data set [9] concerns the target T2, hGLP-1R. The experiment in a line: GLP-1R CHO cell β-arrestin recruitment assay.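 Note: luminescence read after 90 min peptide exposure at 37 °C and a further 60 min with detection reagent at room temperature.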 The data set is classed as cell-based. On the set-up: host or cells: CHO-K1 (PathHunter, assay-ready frozen cells).

The EC50 is the concentration at which the effect is half-maximal. As a reminder, the CL/F is the apparent clearance, not corrected for the fraction that reaches the circulation. A word on the half-life: it is the time in which the quantity being followed falls by half. Regarding `CC[C@H](C)[C@H](NC(=O)[C@H](Cc1ccccc1)NC(=O)[C@H](C)NC(=O)C(C)(C)NC(=O)[C@H](CCC(N)=O)NC(=O)[C@H](C)NC(=O)[C@H](CCCCNC(=O)COCCOCCNC(=O)CC[C@H](NC(=O)CCCCCCCCCCCCCCCCCCC(=O)O)C(=O)O)NC(=O)[C@H](CCCCN)NC(=O)[C@H](CC(=O)O)NC(=O)[C@H](CC(C)C)NC(=O)[C@](C)(CC(C)C)NC(=O)[C@H](CCCCN)NC(=O)[C@H](CO)NC(=O)[C@H](Cc1ccccc1)NC(=O)[C@H](CC(=O)O)NC(=O)[C@H](CO)NC(=O)[C@@H](NC(=O)[C@H](Cc1ccccc1)NC(=O)[C@@H](NC(=O)CNC(=O)[C@H](CCC(N)=O)NC(=O)C(C)(C)NC(=O)[C@@H](N)Cc1ccc(O)cc1)[C@@H](C)O)[C@@H](C)O)C(=O)N[C@@H](CCC(=O)O)C(=O)N[C@@H](Cc1ccc(O)cc1)C(=O)N[C@@H](CC(C)C)C(=O)N[C@@H](CC(C)C)C(=O)N[C@@H](C)C(=O)NCC(=O)NCC(=O)N1CCC[C@H]1C(=O)N[C@@H](CO)C(=O)N[C@@H](CO)C(=O)NCC(=O)N[C@@H](CCC(=O)O)C(=O)N1CCC[C@H]1C(=O)N1CCC[C@H]1C(=O)N1CCC[C@H]1C(=O)N[C@@H](CO)C(=O)N[C@@H](CCC(=O)O)C(=O)NCC(N)=O` [Example 1], the EC50 in data set [1] came out at 73.9 nM; in data set [2], 524 nM; in data set [3], 1690 nM; in [4], 0.207 nM; in data set [5], 1.42 nM; in data set [6] it was 3.72 nM. The values for the EC50 in [8] and in data set [9] were 44.7 nM and more than 10000 nM, respectively. The CL/F in [7] was 0.21 mL/min/kg. Also, the half-life in data set [7] was 16.1 h. For the same molecule, in [8], the “Internalization % TOP” value is 69.1%. Besides, the “% Stimulation Max” value in data set [9] (normalized to GLP-1(7-36) as maximum control) is reported as 17.3%.
As to `CC[C@H](C)[C@H](NC(=O)[C@H](Cc1ccccc1)NC(=O)[C@H](C)NC(=O)C(C)(C)NC(=O)[C@H](CCC(N)=O)NC(=O)[C@H](C)NC(=O)[C@H](CCCCNC(=O)COCCOCCNC(=O)CC[C@H](NC(=O)CCCCCCCCCCCCCCCCC(=O)O)C(=O)O)NC(=O)[C@H](CCCCN)NC(=O)[C@H](CC(=O)O)NC(=O)[C@H](CC(C)C)NC(=O)[C@](C)(CC(C)C)NC(=O)[C@H](CCCNC(=N)N)NC(=O)[C@H](CO)NC(=O)[C@H](Cc1ccccc1)NC(=O)[C@H](CC(=O)O)NC(=O)[C@H](CO)NC(=O)[C@@H](NC(=O)[C@H](Cc1ccccc1)NC(=O)[C@@H](NC(=O)CNC(=O)[C@H](CCC(N)=O)NC(=O)C(C)(C)NC(=O)[C@@H](N)Cc1ccc(O)cc1)[C@@H](C)O)[C@@H](C)O)C(=O)N[C@@H](CCC(=O)O)C(=O)N[C@@H](Cc1ccc(O)cc1)C(=O)N[C@@H](CC(C)C)C(=O)N[C@@H](CC(C)C)C(=O)N[C@@H](CCC(=O)O)C(=O)NCC(=O)NCC(=O)N1CCC[C@H]1C(=O)N[C@@H](CO)C(=O)N[C@@H](CO)C(=O)NCC(=O)N[C@@H](C)C(=O)N1CCC[C@H]1C(=O)N1CCC[C@H]1C(=O)N1CCC[C@H]1C(=O)N[C@@H](CO)C(=O)NCC(=O)N[C@@H](CO)C(N)=O` [Example 143], the EC50 came to 63.9 nM in data set [1]; 594 nM in data set [2]; 1690 nM in data set [3]; 0.211 nM in [4]; 2.44 nM in data set [5]; 4.51 nM in data set [6]. In data set [8], this molecule gave an EC50 of 337 nM. In [8], the “Internalization % TOP” value amounted to 43%.
Turning to `CC[C@H](C)[C@H](NC(=O)[C@H](Cc1ccccc1)NC(=O)[C@H](C)NC(=O)C(C)(C)NC(=O)[C@H](CCC(N)=O)NC(=O)[C@H](C)NC(=O)[C@H](CCCCNC(=O)COCCOCCNC(=O)CC[C@H](NC(=O)CCCCCCCCCCCCCCCCCCC(=O)O)C(=O)O)NC(=O)[C@H](CCCCN)NC(=O)[C@H](CC(=O)O)NC(=O)[C@H](CC(C)C)NC(=O)[C@](C)(CC(C)C)NC(=O)[C@H](CCCCN)NC(=O)[C@H](CO)NC(=O)[C@H](Cc1ccccc1)NC(=O)[C@H](CC(=O)O)NC(=O)[C@H](CO)NC(=O)[C@@H](NC(=O)[C@H](Cc1ccccc1)NC(=O)[C@@H](NC(=O)CNC(=O)[C@H](CCC(N)=O)NC(=O)C(C)(C)NC(=O)[C@@H](N)Cc1ccc(O)cc1)[C@@H](C)O)[C@@H](C)O)C(=O)N[C@@H](CCC(=O)O)C(=O)N[C@@H](Cc1ccc(O)cc1)C(=O)N[C@@H](CC(C)C)C(=O)N[C@@H](CC(C)C)C(=O)N[C@@H](C)C(=O)NCC(=O)NCC(=O)N1CCC[C@H]1C(=O)N[C@@H](CO)C(=O)N[C@@H](CO)C(=O)NCC(=O)N[C@@H](C)C(=O)N1CCC[C@H]1C(=O)N1CCC[C@H]1C(=O)N1CCC[C@H]1C(=O)N[C@@H](CO)C(=O)N[C@@H](CO)C(=O)NCC(N)=O` [Example 13], the EC50 in data set [1] came to 29.2 nM; in data set [2], 282 nM; in data set [3], 1670 nM; in [4], 0.196 nM; in data set [5] it was 1.78 nM; in data set [6], 7.19 nM. Also, in data set [8] (HEK293 cells expressing SNAP-GLP-1R, read-out: GLP1R Internalization EC50), the 50% effective concentration (EC50) is 53.3 nM. Also, in data set [8], the “Internalization % TOP” value is listed as 74.7%.
